Data reported in ChEMBL document CHEMBL1130318, “Inhibition of stromelysin-1 (MMP-3) by P1'-biphenylylethyl carboxyalkyl dipeptides” (J Med Chem, 1997).

Chains of the proteins cited; added tags and fusions are not shown. Lines headed by an entry give the natural chain unless they say otherwise; changes in a name come on top.
UniProt P08254: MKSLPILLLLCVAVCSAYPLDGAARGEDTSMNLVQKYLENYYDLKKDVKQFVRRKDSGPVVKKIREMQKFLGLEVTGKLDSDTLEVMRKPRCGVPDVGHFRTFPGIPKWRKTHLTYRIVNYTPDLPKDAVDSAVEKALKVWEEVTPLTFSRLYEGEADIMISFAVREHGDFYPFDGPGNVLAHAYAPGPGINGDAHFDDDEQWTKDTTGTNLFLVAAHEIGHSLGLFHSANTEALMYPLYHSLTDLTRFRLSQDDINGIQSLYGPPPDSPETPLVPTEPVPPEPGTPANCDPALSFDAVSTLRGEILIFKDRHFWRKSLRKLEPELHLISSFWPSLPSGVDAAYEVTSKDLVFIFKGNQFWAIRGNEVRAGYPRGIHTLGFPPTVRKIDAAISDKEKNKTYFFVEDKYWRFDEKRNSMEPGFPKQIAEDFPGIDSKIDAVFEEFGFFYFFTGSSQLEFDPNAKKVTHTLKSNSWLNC

Target: Stromelysin-1 (Homo sapiens, UniProt P08254)

CC(C)C[C@H](NC(=O)[C@H](CCc1ccc(-c2ccc(F)cc2)cc1)C[C@H](CCCCN1Cc2ccccc2C1=O)C(=O)O)C(=O)Nc1ccccc1 [L-764004]
Ki: 2 nM
